Laboratory results as given in patent US7825132B2, “Inhibition of FGFR3 and treatment of multiple myeloma” (Novartis Vaccines and Diagnostics, Inc., priority 2002, dated 2010).

Tests used:
[1] = tested on: 4T1 (mouse breast cancer); test: cells
SW620 (colon cancer) = test: cells; conditions: Homo sapiens, SW-620
Du145 (prostate cancer) = test: cells; conditions: Homo sapiens, DU-145
H209 (lung cancer) = test: cells; conditions: Homo sapiens, NCI-H209
SKOV3 (ovarian cancer) = test: cells; conditions: Homo sapiens, SK-OV-3
[2] = tested on: FGF-2 supplemented Matrigel neovascularization; conditions: 100 mg/kg
MOLT-4 (ALL) = test: cells; conditions: Homo sapiens
[3] = tested on: HMEC (normal mammary epithelium); test: cells; conditions: Homo sapiens
ARH77 (multiple myeloma) = test: cells; conditions: Homo sapiens, ARH-77
[4] = tested on: MDA-MB435 (breast cancer); test: cells; conditions: Homo sapiens, MDA-MB-435
HCT116 (colon cancer) = test: cells; conditions: Homo sapiens, HCT-116
Ku812 (CML) = test: cells; conditions: Homo sapiens
HT29 (colon cancer) = test: cells; conditions: Homo sapiens, HT-29
H226 (lung cancer) = test: cells; conditions: Homo sapiens, NCI-H226
K562 (CML) = test: cells; conditions: Homo sapiens
[5] = tested on: PrC (normal prostate epithelium); test: cells; conditions: Homo sapiens
OPM-2 cells = conditions: Grand et al., Leukemia 2004; cited from earlier work

| Compound | EC50 [1] | EC50 (SW620 (colon cancer)) | EC50 (Du145 (prostate cancer)) | EC50 (H209 (lung cancer)) | EC50 (SKOV3 (ovarian cancer)) | % Hb inhibition vs. Vehicle treatment of Matrigel + FGF [2] | EC50 (MOLT-4 (ALL)) | EC50 [3] | EC50 (ARH77 (multiple myeloma)) | EC50 [4] | EC50 (HCT116 (colon cancer)) | EC50 (Ku812 (CML)) | EC50 (HT29 (colon cancer)) | EC50 (H226 (lung cancer)) | EC50 (K562 (CML)) | EC50 [5] | cytotoxic response / apoptosis in OPM2 cells (OPM-2 cells) |
| --- | --- | --- | --- | --- | --- | --- | --- | --- | --- | --- | --- | --- | --- | --- | --- | --- | --- |
| CN1CCN(c2ccc3nc(-c4c(N)c5c(F)cccc5[nH]c4=O)[nH]c3c2)CC1 [Compound 1] | 400 to 1000 nM | 1000 to 10000 nM | 1000 to 10000 nM | 1000 to 10000 nM | 1000 to 10000 nM | 80% | 1000 to 10000 nM | 1000 to 10000 nM | 1000 to 10000 nM | 1000 to 10000 nM | 1000 to 10000 nM | 1000 to 10000 nM | 1000 to 10000 nM | 1000 to 10000 nM | 1000 to 10000 nM | 1000 to 10000 nM |  |
| SU5402 |  |  |  |  |  |  |  |  |  |  |  |  |  |  |  |  | induced cytotoxic responses |
